A value given as a limit tells only on which side of the number the result lay.

The chains behind the UniProt entries cited, without tags or fusion partners.
UniProt P09874, whole entry: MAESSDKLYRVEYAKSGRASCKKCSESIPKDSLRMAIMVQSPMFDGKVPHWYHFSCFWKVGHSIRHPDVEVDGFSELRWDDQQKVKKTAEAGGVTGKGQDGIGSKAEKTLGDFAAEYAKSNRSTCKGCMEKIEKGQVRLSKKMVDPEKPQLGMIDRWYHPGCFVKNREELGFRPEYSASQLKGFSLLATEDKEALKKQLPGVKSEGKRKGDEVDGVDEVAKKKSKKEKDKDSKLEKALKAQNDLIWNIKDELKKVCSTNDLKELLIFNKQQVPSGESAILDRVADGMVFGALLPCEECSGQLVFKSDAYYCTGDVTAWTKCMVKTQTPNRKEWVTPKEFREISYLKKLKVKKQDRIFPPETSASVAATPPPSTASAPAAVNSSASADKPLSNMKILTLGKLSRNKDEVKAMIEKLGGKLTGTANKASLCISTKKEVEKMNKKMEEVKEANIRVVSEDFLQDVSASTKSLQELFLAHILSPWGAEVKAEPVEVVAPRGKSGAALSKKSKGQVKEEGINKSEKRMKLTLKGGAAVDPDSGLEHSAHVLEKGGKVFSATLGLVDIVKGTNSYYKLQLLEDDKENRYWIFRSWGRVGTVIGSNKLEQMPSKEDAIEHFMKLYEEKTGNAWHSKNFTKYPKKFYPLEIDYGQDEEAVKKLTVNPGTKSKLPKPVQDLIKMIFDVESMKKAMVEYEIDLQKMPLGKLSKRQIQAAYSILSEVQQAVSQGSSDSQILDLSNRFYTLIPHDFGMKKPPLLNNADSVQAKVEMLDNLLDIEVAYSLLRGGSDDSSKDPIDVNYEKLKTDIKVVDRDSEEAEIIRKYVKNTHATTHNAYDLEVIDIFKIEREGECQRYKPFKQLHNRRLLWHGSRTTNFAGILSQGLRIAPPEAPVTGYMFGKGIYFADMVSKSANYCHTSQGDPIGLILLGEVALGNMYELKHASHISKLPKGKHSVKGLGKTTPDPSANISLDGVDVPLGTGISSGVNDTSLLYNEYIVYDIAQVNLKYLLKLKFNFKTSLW
UniProt Q9UGN5, whole entry: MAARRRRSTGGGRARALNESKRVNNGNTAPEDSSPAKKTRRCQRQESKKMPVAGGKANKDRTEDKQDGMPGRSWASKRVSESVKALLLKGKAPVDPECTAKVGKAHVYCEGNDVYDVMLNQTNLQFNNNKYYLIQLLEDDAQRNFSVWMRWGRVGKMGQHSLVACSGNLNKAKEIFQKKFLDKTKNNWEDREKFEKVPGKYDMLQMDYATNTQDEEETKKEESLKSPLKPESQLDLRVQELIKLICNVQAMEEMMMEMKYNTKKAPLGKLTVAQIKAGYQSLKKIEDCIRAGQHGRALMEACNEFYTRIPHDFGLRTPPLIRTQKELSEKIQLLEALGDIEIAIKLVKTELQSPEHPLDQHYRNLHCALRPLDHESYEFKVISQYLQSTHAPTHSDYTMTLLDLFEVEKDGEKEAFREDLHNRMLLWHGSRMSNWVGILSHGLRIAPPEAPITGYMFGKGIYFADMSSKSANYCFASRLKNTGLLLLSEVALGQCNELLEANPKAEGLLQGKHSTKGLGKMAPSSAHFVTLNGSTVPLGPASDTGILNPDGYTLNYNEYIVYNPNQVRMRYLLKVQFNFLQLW

Drawing on US20250270224A1, “POLYCYCLIC POLY(ADP-RIBOSE) POLYMERASE SELECTIVE INHIBITOR” (XUANZHU BIOPHARMACEUTICAL CO., LTD., priority 2022, published 2025), this text covers IC50 for 2 compounds.

Test [1] has as its target PARP1 (Homo sapiens (Human), UniProt P09874). The test can be described thus: In-vitro enzymatic activity, PARP1 (histone-coated plate, chemiluminescence detection). Particulars: read-out: PARP1 IC50; class symbols. The class given is biochemical.
Test [2] relates to MDA-MB-436 cells. The experiment in a line: In-vitro cytological inhibitory activity (CelltiterGlo assay), 7 days culture. The class given is cell-based. Particulars: read-out: MDA-MB-436 (IC50), BRCA1 mutated human breast cancer cells, CTG. A general note: In ATP-based viability assays light output follows the ATP content of the culture.
Test [3] addresses PARP2 (Homo sapiens (Human), UniProt Q9UGN5). The experiment in a line: In-vitro enzymatic activity, PARP2 (histone-coated plate, chemiluminescence detection). To be noted: read-out: PARP2 IC50; class symbols. The class given is biochemical.

Broadly, the IC50 is the point on the concentration scale where inhibition reaches its midpoint. As to `CNC(=O)c1ccc(N2CCN(Cc3cc4c5c(c3)c(F)cn5C(C)C(=O)N4)CC2)c(F)n1` (single isomer, unassigned) [Compound 41-1], the IC50 in test [1] is below 1 nM; in test [2] it was 5.9 nM; in test [3] it was 100 to 1000 nM.

With `CNC(=O)c1ccc(N2CCN(Cc3cc4c5c(c3)c(F)cn5C(C)C(=O)N4)CC2)c(F)n1` (single isomer, unassigned) [Compound 41-2], the figures for the IC50 in test [1], in test [2] and in test [3] were below 1 nM, 5.5 nM and 100 to 1000 nM, respectively.
